The values below are quoted from earlier work in patent US20060067952A1, “Low oil emulsion compositions for delivering taxoids and other insoluble drugs” (SD Pharmaceuticals, Inc., priority 2004, published 2006).

“5β,20-epoxy-1,2α,4,7β,10β,13α-hexahydroxytax-11-en-9-one 4,10-diacetate 2-benzoate 13-ester with (2R,3S)-N-benzoyl-3-phenylisoserine [Paclitaxel]”: the “Solubility in water (descriptive)” value is “insoluble in water”.
